Assay results from patent US7550499B2, “Urea antagonists of P2Y1 receptor useful in the treatment of thrombotic conditions” (Bristol-Myers Squibb Company, priority 2004, dated 2009).

Sequences of proteins named here, by UniProt entry; tags and fusion partners are left off. A change or cut given only in a name is not applied to a line headed by its entry.
UniProt P47900: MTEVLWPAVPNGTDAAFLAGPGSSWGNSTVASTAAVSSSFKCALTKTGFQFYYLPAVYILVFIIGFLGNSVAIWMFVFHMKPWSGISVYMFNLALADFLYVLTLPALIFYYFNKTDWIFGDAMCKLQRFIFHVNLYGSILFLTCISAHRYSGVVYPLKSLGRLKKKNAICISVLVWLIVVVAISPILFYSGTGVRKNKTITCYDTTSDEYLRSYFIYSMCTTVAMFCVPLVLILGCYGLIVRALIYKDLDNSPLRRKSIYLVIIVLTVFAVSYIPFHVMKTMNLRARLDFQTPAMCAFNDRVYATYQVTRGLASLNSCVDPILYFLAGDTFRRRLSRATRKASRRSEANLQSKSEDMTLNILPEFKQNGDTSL

Target: T1, cloned human P2Y1 receptors (Homo sapiens, UniProt P47900)
T1 construct: expressed in transfected cells
Assay: P2Y1 membrane binding assay (inhibition of [^33P] 2MeS-ADP binding)
Settings: value used in the Cheng-Prusoff relationship; read-out: Kd for 2MeS-ADP to the P2Y1 receptor
Text: A membrane binding assay was used to identify inhibitors of [^33P] […] The cDNA clone for human P2Y1 was obtained from Incyte Pharmaceuticals and its sequence confirmed by established techniques (for a compendium of techniques used see Ausubel, F. et al. Current Protocols in Molecular Biology 1995 John Wiley and Sons, NY, N.Y.). The essential coding sequences were subcloned into pCDNA 3.1 (Invitrogen) to produce a P2Y1 expression construct. This construct was then transfected into the human embryonic kidney cell line HEK-293 and stable transfectants selected in Genetcin® (G418 sulfate; Life Technologies). […] Membranes were prepared by growing HEK293 #49 in 150 mm dishes in DMEM/10% FBS in the presence of 1 mg/ml G418 until cells were 80-90% confluent. Plates were then washed with cold (4° C.) D-PBS twice and cells harvested by scraping into 10 mL D-PBS. Cells were pelleted by centrifugation (1,000 g, 10 min, 4° C.) and the resulting pellet resuspended in Lysis Buffer (10 mM Tris (7.4), 5 mM MgCl2 containing Complete® protease inhibitor cocktail (Roche Cat #1873580) as recommended by the manufacturer). […]
Reactions were allowed to proceed to completion at room temperature for 1 hour and then the aqueous solution aspirated. Plates were sealed and the residual [^33P] bound to the plate determined by scintillation counting.

Kd: 1.4 nM
Compound: CSc1nc(N)c2ncn([C@@H]3O[C@H](COP(=O)(O)OP(=O)(O)O)[C@@H](O)[C@H]3O)c2n1 [Example 2MeS-ADP, 2 methylthio adenosine diphosphate]
